Compounds with a hit are over-represented: about 3.7% of the library has one in this group of screens.
Nrf2 activator: activates Nrf2 signaling. Potency, µM (series often up to 46.1 µM), for inactives: at the highest dose activation, usual class: activators. actives 0.31% (n = 410,000). AREc32 ARE-luciferase reporter (MCF7-derived line), luminescence, 24 h; note: potency is the fitted concentration of half-maximal effect; % of control where 0% means no effect; nearly all actives have a fitted effect of over 65% in size
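Each well held 1000 AREc32 cells, which were incubated with compound for 24 hr at 37 deg C after overnight attachment, and ARE reporter activity was quantified by firefly luciferase luminescence.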
miR-21 reporter: raises the signal of a miR-21 reporter; Potency, µM (doses to about 38.3 µM), inactives show top-dose reporter change, positive = more light; HeLa miR-21 FLuc reporter, luciferase, 48 h; AID 2288; 340,000 tested, under 10 active; active = well fitted rising curve with a large enough effect; inconclusive = small, poorly fitted or top-dose-only effect; inactive = no such curve, though single readings can be large or run the other way;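 further: % of control where 0% means no effect; miR-21 action dims this reporter so a rising signal means less miR-21 action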
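Compounds were titrated across several concentrations (up to approximately 40 uM) and incubated 48 hours with HeLa miR-21-FLuc reporter cells (miR-21 target sequence downstream of FLuc, endogenous miR-21). Readout was firefly luciferase luminescence after lytic detection reagent.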
A549 tox: counter-screen for Nrf2 inhibitors: cytotoxicity in A549 cells | A549 ARE-Fluc cells, CellTiter-Fluor viability, 18-24 h | Potency, µM (highest dose often 46 µM), for the others: at the top dose activity change, negative = cytotoxicity, actives largely listed as inhibitors | AID 504648 | actives 0.16% (n = 390,000); note: potency is the fitted concentration of half-maximal effect; % is set by controls: 0 for no effect and ±100 for the full control effect
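A549 ARE_Fluc cells in 5% FBS OPTI-MEM were exposed to compounds in concentration-response for 18-24 h at 37 deg C. Viability was read by CellTiter-Fluor fluorescence (Ex 405/Em 525) after 30 min, before the luciferase read.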
ClpP mod: qHTS Assay for Activators of ClpP; ATP-dependent Clp protease proteolytic subunit (Bacillus subtilis (strain 168)), P80244; purified B. subtilis ClpP, FRET peptide cleavage, 20 min; Potency, µM (top dose mostly 57.5 µM), without a hit: at the top dose activity change, negative = active; actives 1.9% (n = 340,000); active = well fitted falling curve with a large enough effect; inconclusive = small, poorly fitted or top-dose-only effect; inactive = no such curve, though single readings can be large or run the other way; note: potency is the fitted concentration of half-maximal effect; the source files actives as falling curves though it sought activators and does not explain the sign; nearly all actives have a fitted effect of over 65% in size
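ClpP 10 microg/mL final, pH 8 Tris/KCl buffer with BSA, glycerol, Tween-20; compound pinned in; FRET-FV substrate; RT 20 min; Ex320/Em430; ΔFRET vs ADEP 5.8 microM, DMSO, no enzyme.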
Nrf2 block: Nrf2 pathway inhibition | A549 ARE-Fluc reporter, luciferase luminescence, 18-24 h | actives 2.1% (n = 360,000) | AID 504444 | Potency, µM (titrated, usually from 46 µM), without a hit: at the top dose activity change, negative = inhibition, actives largely listed as inhibitors; note: potency is the fitted concentration of half-maximal effect; % is set by controls: 0 for no effect and ±100 for the full control effect; nearly all actives have a fitted effect of over 60% in size
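Nrf2 function is reported as luminescence of an ARE-controlled luciferase in A549 cells. Compounds were tested at several concentrations, and a CellTiter-Fluor read on the same wells flagged cytotoxicity.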
TCR act: activators of T cell receptors; primary human leukocytes, anti-CD3, IL-2 HTRF, 48 h; Potency, µM (highest dose often 9.22 µM), inactives show at the highest dose activation of IL-2 secretion, most hits filed as activators; 330,000 tested, under 10 active; AID 504894; note: % of control where 0% means no effect
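Primary human leukocytes were stimulated with a-CD3 beads plus compounds for 48 hr without co-stimulation; secreted IL-2 was quantified by HTRF using a-IL-2-K (europium cryptate) and a-IL-2-d2, excited at 320nm with acceptor emission read at 665nm.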
* marks the source's active call; other numbers are inactive results; u = inconclusive; x = no result given; ! = not confirmed by another sample; [ ] = another dose, or the depositor's remark. Unless noted, calls come from the whole dose curve; as a rule, active = well fitted curve in the direction sought with a large enough effect; inconclusive = small, poorly fitted or top-dose-only effect, or another doubt; inactive = no such curve, though single readings can be large; an effect the other way counts as inactive or inconclusive.

SMILES	Nrf2 activator	miR-21 reporter	A549 tox	ClpP mod	Nrf2 block	TCR act
COC(=O)c1c(NC(=O)c2cccnc2)sc(C(=O)N(C)C)c1C	0%	-5%	0%	1%	u	3%[46.1 µM]
CCOC(=O)c1c(NC(=O)c2ccco2)sc2c1CCCCC2	12%	-14%	4%	35µM*	11%	-8%
COC(=O)c1c(NC(=O)COC(=O)[C@@H](NS(=O)(=O)c2ccc(C)cc2)C(C)C)sc2c1CCC2	3%	0%	4%	28µM*	1%	3%[46.1 µM]
Cc1cc(C)n2nc(CNS(=O)(=O)c3cccc([N+](=O)[O-])c3)nc2n1	0%	0%	0%	-1%	-6%	0%
O=C1Cc2cc(S(=O)(=O)N3CCN(c4ccc(Br)cc4)CC3)ccc2N1	x	x	5%[92.2 µM]	x	-15%[92.2 µM]	x
Cc1csc(NC(=O)c2ccc3nc[nH]c3c2)n1	1%	-17%	3%	x	u	1%
CN(C(=O)c1cccc(NC(=O)Cc2ccc(NC(=O)C3CCCN(C(=O)C4CC4)C3)cc2)c1)C1CCCC1 (stereo unspecified)	2%	x	-3%	-2%	-14%	-4%
CCOC(=O)c1c(NC(=O)c2ccc(C)cc2)sc2c1CC(C)(C)OC2	0%	-7%	18%	25µM*	x	6%
C[C@@H](C(=O)Nc1ccc2ccccc2c1)[C@@H]1C[C@@]1(C)[C@@H](NC(=O)c1ccccc1)c1ccccc1	-1%	-23%	-3%	-6%	11%	-10%
COC(=O)N[C@H](c1ccccc1)[C@@]1(C)C[C@@H]1[C@@H](C)C(=O)Nc1ccc2ccccc2c1	0%	x	u	-4%	18µM*!	1%
CN(C)CCCNc1nc2cc(-c3cnn(C)c3)sc2c(=O)n1C	4%	x	x	-20%	x	x
Cc1ccc(Nc2nc(-c3ccc(S(=O)(=O)N4CCCC4)cc3)cs2)cc1C	3%	13%	u	u	x	4%
O=S(=O)(c1ccc(-c2csc(Nc3ccc(F)cc3)n2)cc1)N1CCCC1	2%	9%	-29%	20µM*	18µM*	4%[46.1 µM]
Cc1cc(C)cc(Nc2nc(-c3ccc(S(=O)(=O)N4CCCC4)cc3)cs2)c1	-1%	26%	2%	4%	u	-5%[46.1 µM]
Cc1ccc(Nc2nc(-c3ccc(S(=O)(=O)N4CCOCC4)cc3)cs2)cc1	-1%	x	-3%	13µM*	x	2%
CCOC(=O)C1=C(C)N(C[C@@H]2CC[C@@H](Cc3ccc(-c4ccccc4)cc3)O2)C(=O)NC1C1CC1 (stereo partly specified)	0%	x	0%	-3%	u	-2%[46.1 µM]
Clc1ccc(-c2cn3cc(Cl)ccc3n2)cc1	7%	-32%	12%	u	u	-3%
Oc1ccc(-c2cn3cc(C(F)(F)F)ccc3n2)cc1	-1%	25%	3%	28µM*	u	2%[46.1 µM]
CCOC(=O)N1CCc2c(sc3c2c(=O)n(-c2ccc(CC)cc2)c(=O)n3CC(=O)NCC2CCCO2)C1 (stereo unspecified)	0%	-1%	7%	-3%	7%	30%
COCCN1Cc2cccc(C(=O)Nc3ccc(Cl)cc3Cl)c2C1=O	4%	-16%	16%	0%	-29%	x
Cc1cccn2c(=O)c3cc(C(=O)NCc4ccco4)c(=N)n(C(C)C)c3nc12	6%	-3%	x	14µM*	-2%	-6%
Cc1cccn2c(=O)c3cc(C(=O)NC4CCCC4)c(=N)n(C4CCCC4)c3nc12	0%	-9%	u	u	6%	12%
CCC(C)N=Cc1c(NCc2ccco2)nc2c(C)cccn2c1=O (stereo unspecified)	13µM*	-12%	-5%	-9%	-5%	5%
N=c1c(C(=O)NC2CCCC2)cc2c(=O)n3ccccc3nc2n1C1CCCC1	0%	-10%	12%	3.2µM*	1%	5%
COCCn1c(=N)c(C(=O)NCc2ccco2)cc2c(=O)n3ccccc3nc21	19%	-1%	-13%	28µM*	2%	10%

Profiles, quoted from the list. Screens in order: Nrf2 activator | miR-21 reporter | A549 tox | ClpP mod | Nrf2 block | TCR act
Clc1ccc(-c2cn3cc(Cl)ccc3n2)cc1 in the list: 7% | -32% | 12% | u | u | -3%
COC(=O)N[C@H](c1ccccc1)[C@@]1(C)C[C@@H]1[C@@H](C)C(=O)Nc1ccc2ccccc2c1 in the list: 0% | x | u | -4% | 18µM*! | 1%

An excerpt of these results, with two lines to a compound.
Below each SMILES: Nrf2 activator | miR-21 reporter | A549 tox | ClpP mod | Nrf2 block | TCR act
Cc1cccn2c(=O)c3cc(C(=O)NCc4ccco4)c(=N)n(C(C)C)c3nc12
→ 6% | -3% | x | 14µM* | -2% | -6%
Cc1cccn2c(=O)c3cc(C(=O)NC4CCCC4)c(=N)n(C4CCCC4)c3nc12
→ 0% | -9% | u | u | 6% | 12%
CCC(C)N=Cc1c(NCc2ccco2)nc2c(C)cccn2c1=O (stereo unspecified)
→ 13µM* | -12% | -5% | -9% | -5% | 5%
N=c1c(C(=O)NC2CCCC2)cc2c(=O)n3ccccc3nc2n1C1CCCC1
→ 0% | -10% | 12% | 3.2µM* | 1% | 5%
COCCn1c(=N)c(C(=O)NCc2ccco2)cc2c(=O)n3ccccc3nc21
→ 19% | -1% | -13% | 28µM* | 2% | 10%

(next part)
SMILES	Nrf2 activator	miR-21 reporter	A549 tox	ClpP mod	Nrf2 block	TCR act
Cc1cccn2c(=O)c3cc(C(=O)NCc4ccco4)c(=N)n(CCc4ccccc4)c3nc12	6%	4%	-8%	x	u	-6%
CCN1C(=NCc2cccc(C(F)(F)F)c2)N[C@@H](c2cccc(C(F)(F)F)c2)C(C(=O)OC)=C1C	x	x	x	2%	x	x
N=c1c(C(=O)NCc2ccco2)cc2c(=O)n3ccccc3nc2n1Cc1ccccc1	7%	-2%	-12%	18µM*	x	0%
CC(=O)c1ccc(-n2nnnc2SCC(=O)NC2CCCCC2)cc1	4%	0%	0%	x	-14%	-1%
Nc1c(Cl)cc(Cl)cc1C(=O)OCC(=O)N1CCCC1=O	0%	x	0%	x	5%	10%
COC(=O)CNC(=O)COC(=O)c1cc(Cl)cc(Cl)c1N	-1%	-7%	0%	2.8µM*	7%	-2%[46.1 µM]
CC(C)CNC(=O)COC(=O)c1ccc(F)cc1Cl	-1%	-12%	1%	x	u	3%
Nc1c(Cl)cc(Cl)cc1C(=O)OCC(=O)N1CCCC1	0%	-17%	2%	22µM*	-7%	-8%
NC(=O)COC(=O)c1cc(Cl)cc(Cl)c1N	0%	-3%	-2%	x	0%	-4%
CC(C)CNC(=O)COC(=O)c1cc(Cl)cc(Cl)c1N	0%	-6%	-1%	16µM*	-19%	-1%
COc1cc(SC)ccc1C(=O)OCC(=O)NCC(C)C	2%	-28%	2%	40µM*	u	6%
COc1ccc(CCNc2nc(-c3ccc(OC)c(OC)c3)cc(C(F)(F)F)n2)cc1OC	2%	u	4%	u	15%[9.27 µM]	x
CC(=O)Nc1ccc(S(=O)(=O)N2CCC(N3CCN(Cc4ccc(C)cc4)C(=O)C3=O)CC2)cc1	-1%	0%	4%	3%	u	x
COC(=O)c1ccc(Cn2ccc(=O)[nH]c2=O)cc1	0%	x	-4%	14µM*	0%	2%
CCC1c2ccc(C)n2CCN1C(=O)Nc1ccccc1C(=O)OC (stereo unspecified)	-1%	-2%	0%	35µM*	-27%	1%
CCOC(=O)c1ccccc1NC(=O)N1CCn2c(C)ccc2C1CC (stereo unspecified)	2%	0%	3%	u	-8%	4%
Cc1ccc(-c2cc(C(=O)O)c3sc(N4CCCCC4)nc3n2)cc1	0%	-12%	8%	u	-13%	-3%[46.1 µM]
COc1ccc(-c2cc(-c3ccccc3)nc(N3CCCC3)n2)cc1OC	-1%	1%	-6%	25µM*	x	5%

Bioassay records: PubChem, National Center for Advancing Translational Sciences (NCATS)
